# Biological target: T1, BTK enzyme (recombinant full-length BTK, hBTK) (Homo sapiens, UniProt Q06187)
# Protein sequences, listed by entry. Tags and fused reporters are not part of them. Lines headed by an entry give the natural chain unless they say otherwise; changes in a name come on top.
# UniProt Q06187: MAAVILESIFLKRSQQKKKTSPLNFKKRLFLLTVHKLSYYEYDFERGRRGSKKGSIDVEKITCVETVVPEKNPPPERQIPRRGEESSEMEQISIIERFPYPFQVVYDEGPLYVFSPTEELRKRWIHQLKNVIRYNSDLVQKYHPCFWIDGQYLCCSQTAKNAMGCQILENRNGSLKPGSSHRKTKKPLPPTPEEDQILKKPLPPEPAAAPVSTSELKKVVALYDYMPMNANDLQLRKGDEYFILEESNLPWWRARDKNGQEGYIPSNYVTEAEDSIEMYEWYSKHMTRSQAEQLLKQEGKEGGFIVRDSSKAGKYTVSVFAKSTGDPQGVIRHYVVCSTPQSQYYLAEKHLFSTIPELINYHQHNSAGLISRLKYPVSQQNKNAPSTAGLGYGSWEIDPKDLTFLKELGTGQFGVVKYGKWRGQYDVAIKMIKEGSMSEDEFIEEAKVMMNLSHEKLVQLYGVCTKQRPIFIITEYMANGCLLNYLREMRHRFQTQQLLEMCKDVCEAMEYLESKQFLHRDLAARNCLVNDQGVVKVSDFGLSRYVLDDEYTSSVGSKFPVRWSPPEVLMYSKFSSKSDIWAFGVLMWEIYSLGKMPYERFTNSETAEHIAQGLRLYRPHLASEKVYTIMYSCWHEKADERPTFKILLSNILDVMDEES
# T1 construct: recombinant protein from baculovirus-transfected Sf9 cells: full-length BTK, 6HIS-tag cleaved; 6HIS (cleaved yes); made in house; host or cells: baculovirus-transfected Sf9 cells
# Assay: BTK enzyme activity assay, LANCE TR-FRET
# Type: biochemical
# Conditions: 50 pM hBTK, 2 μM biotin-A5-peptide, 25 μM ATP; 60 min compound & enzyme incubation
smiles,measurement,value
"COc1cc(C(=O)Nc2cc(C(F)(F)F)ccn2)ccc1-c1nc([C@@H]2CC[C@H]3CCC(=O)N3C2)n2ccnc(N)c12 [Example 88, 4-(8-amino-3-((6R,8aS)-3-oxooctahydroindolizin-6-yl)imidazo[1,5-a]pyrazin-1-yl)-3-methoxy-N-(4-(trifluoromethyl)pyridin-2-yl)benzamide]",IC50,0.19 nM

# From patent publication US20140206681A1, “BTK INHIBITORS” (priority 2013, published 2014)
